The numbers were not newly measured in US20210077478A1, “METHOD OF COUNTERING RESPIRATORY DEPRESSION VIA ACTIVATION OF NEURONAL HETEROMERIC NICOTINIC ACETYLCHOLINE RECEPTORS” (THE GOVERNORS OF THE UNIVERSITY OF ALBERTA, priority 2017, published 2021), which cites them from elsewhere.

Sequences of proteins named here, by UniProt entry; tags and fusion partners are left off. Residues count along the entry.
UniProt P09483, 31-630: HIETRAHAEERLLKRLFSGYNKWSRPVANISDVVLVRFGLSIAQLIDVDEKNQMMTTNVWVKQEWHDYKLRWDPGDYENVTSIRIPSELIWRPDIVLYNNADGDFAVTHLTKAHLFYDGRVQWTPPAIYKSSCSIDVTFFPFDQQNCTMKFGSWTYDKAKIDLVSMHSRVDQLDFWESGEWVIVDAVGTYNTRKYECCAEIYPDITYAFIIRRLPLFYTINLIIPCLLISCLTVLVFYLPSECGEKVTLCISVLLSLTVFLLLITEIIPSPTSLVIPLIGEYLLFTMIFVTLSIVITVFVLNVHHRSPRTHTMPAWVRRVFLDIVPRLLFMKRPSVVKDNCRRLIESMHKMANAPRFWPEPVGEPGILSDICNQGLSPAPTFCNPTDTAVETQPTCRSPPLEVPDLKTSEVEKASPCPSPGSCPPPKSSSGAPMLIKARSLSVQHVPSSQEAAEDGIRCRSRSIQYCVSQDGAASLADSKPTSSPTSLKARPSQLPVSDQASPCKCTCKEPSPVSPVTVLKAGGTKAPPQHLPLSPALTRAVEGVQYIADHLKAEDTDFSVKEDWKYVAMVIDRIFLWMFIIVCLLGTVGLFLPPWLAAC
UniProt P12390, 25-500: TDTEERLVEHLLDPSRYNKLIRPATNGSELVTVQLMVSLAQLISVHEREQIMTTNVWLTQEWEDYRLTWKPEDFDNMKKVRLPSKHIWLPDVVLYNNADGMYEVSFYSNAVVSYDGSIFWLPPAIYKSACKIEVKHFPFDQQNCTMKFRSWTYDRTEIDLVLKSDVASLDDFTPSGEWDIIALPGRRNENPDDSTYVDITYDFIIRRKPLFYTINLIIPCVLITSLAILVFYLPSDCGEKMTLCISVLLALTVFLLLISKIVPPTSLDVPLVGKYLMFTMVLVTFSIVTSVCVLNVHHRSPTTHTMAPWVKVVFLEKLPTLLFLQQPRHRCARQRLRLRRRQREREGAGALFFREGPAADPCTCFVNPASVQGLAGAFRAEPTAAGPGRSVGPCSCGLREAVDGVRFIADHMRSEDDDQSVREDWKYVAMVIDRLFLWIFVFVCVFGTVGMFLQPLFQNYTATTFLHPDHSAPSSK
UniProt P12392, 21-495: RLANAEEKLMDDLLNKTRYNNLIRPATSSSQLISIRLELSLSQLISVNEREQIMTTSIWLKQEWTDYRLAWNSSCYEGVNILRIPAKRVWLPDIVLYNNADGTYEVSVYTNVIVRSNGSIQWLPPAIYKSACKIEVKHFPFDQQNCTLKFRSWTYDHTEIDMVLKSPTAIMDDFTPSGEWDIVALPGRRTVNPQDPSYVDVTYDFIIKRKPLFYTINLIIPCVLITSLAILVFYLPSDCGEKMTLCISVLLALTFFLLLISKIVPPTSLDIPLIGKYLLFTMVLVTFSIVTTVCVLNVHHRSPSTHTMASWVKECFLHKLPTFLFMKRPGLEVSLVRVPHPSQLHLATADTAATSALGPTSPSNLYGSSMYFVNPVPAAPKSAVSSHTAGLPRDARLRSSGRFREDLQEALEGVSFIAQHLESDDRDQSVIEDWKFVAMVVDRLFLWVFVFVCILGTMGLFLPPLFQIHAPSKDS

The target in one data set is α4β2 nAChRs (Rattus norvegicus, UniProt P09483+P12390). The conditions noted are these: Harvey et al., 1996; read-out: IC50, block of activation; cited from earlier work.
In a further data set the target is α4β4 nAChRs (Rattus norvegicus, UniProt P09483+P12392). The conditions noted are these: Harvey et al., 1996; read-out: IC50, block of activation; cited from earlier work.

Regarding dihydro-beta-erythroidine [DHβE], the IC50 at α4β2 nAChRs was 0.37 µM; at α4β4 nAChRs, 0.19 µM.

In general, IC50 refers to the concentration needed to halve the response being measured.
